Patent US20220281918A1, “PBP BINDING BICYCLIC PEPTIDE LIGANDS” (BicycleTx Limited, priority 2019, published 2022)

T1: E. coli PBP1b (Escherichia coli, UniProt P02919)
T1 sequence (P02919 1-844): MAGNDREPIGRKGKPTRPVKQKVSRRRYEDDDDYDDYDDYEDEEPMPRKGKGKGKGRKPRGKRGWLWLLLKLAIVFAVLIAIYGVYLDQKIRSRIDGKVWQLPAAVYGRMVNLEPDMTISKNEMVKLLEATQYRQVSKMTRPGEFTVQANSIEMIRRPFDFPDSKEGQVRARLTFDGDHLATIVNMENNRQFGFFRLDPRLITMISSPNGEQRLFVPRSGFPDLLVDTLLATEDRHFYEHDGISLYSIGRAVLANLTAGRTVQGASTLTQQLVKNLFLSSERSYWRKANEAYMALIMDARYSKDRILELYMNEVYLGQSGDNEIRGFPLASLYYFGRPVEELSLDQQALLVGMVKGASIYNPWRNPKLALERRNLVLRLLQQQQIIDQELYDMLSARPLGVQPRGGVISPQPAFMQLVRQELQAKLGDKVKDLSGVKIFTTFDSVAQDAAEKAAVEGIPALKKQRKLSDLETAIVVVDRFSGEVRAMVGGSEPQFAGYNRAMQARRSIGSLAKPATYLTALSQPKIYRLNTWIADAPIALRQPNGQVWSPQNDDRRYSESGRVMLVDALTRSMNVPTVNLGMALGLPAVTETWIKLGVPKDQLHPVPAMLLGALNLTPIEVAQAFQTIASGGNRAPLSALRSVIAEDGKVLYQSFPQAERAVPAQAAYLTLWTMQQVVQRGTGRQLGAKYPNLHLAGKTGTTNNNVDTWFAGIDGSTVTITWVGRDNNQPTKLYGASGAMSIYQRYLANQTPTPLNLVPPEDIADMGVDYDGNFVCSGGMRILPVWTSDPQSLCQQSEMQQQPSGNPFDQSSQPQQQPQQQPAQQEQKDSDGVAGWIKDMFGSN

T2: PBP3 of E. coli (E. coli, UniProt P0AD68 57-577, limits assumed)
T2 construct: also called E. coli PBP3; FtsI
T2 sequence (looked up): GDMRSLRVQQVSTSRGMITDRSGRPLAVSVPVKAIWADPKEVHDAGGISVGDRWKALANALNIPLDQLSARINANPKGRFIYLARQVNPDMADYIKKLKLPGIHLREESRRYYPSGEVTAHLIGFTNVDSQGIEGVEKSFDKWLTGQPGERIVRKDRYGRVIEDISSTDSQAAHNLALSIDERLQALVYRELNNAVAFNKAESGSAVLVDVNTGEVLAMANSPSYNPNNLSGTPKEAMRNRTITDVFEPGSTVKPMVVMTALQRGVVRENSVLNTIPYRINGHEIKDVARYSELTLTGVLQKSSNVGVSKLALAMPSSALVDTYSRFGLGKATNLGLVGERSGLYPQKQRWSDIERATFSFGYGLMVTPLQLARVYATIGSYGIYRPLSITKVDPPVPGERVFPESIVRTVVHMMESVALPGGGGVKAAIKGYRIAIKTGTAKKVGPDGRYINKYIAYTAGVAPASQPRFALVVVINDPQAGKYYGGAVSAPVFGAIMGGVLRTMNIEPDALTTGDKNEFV


Tests used:
E. coli PBP1b = biological target: T1, E. coli PBP1b; assay: Fluorescence polarisation direct binding assay, PBP 1b; details: PBP Tested 1b; fluorescein-labelled peptide (Sar6-Lysine linker, C-terminus)
Experimental: Fluorescence polarisation was carried out using fluorescein-labelled peptides with unmodified PBP protein and measured using a PHERAstar FS by BMG Labtech fitted with a FP 485 520 520 optic module.
Fluorescent peptides at 10 mM in DMSO were diluted to 2.5 nM in binding buffer (10 mM HEPES, pH8, 300 mM NaCl, 2% glycerol). A two-fold dilution series of PBP protein was then prepared across 12 wells in binding buffer, with the highest concentration being 21 μM, and the lowest concentration being 17 nM.
10 μl diluted fluorescent peptide (2.5 nM) was added into 12 wells of a 384-Well NBS™ Low Volume Microplate (Fisher Scientific). 10 μl PBP dilution series was then added to the wells containing the fluorescent peptide, and 5 μl binding buffer was added to bring the total volume to 25 μl and the final concentration of peptide tracer to 1 nM. A control well lacking PBP protein was prepared with a final peptide concentration of 1 nM to a final volume of 25 μl in binding buffer. Fluorescence polarisation was measured every 5 minutes for a period of one hour at room temperature. The gain and focal height were optimised using the control well lacking protein. Wells were excited at 485 nm, and emission detection was set at 520 nm.
Data were analysed in GraphPad software to derive values for the dissociation constant. Experiments were repeated at least three times. […]

PBP3 of E. coli = biological target: T2, PBP3 of E. coli; assay: fluorescence polarisation competition; unlabelled peptide against BODIPY-penicillin (Bocillin) tracer, PBP at 800 nM

Molecule	Kd (E. coli PBP1b) [µM]	Ki (PBP3 of E. coli) [µM]
A-(SEQ ID NO: 32)-A [BCY14619]	0.049	
ACSFPKCPWVEGCA (Ci, Cii and Ciii cyclised with TATA scaffold, Bicyclic peptide) [BCY12130 (unlabelled, unmodified peptide)]		0.24
ACRTFGCWWEGCA (Ci, Cii and Ciii cyclised with TATA scaffold, Bicyclic peptide) [BCY12132 (unlabelled, unmodified peptide)]		0.57
